The entries are a selection whose mix differs from that of the whole data set. Some of these compounds have results that are not shown, active ones among them. Active and inactive are the calls of the source.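 Rule for the calls: active = inhibition above the campaign mean inhibition plus 3 SD (cut at about 35% in these data); inactive = the rest.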
Target: Glutathione S-transferase omega-1 (Homo sapiens) (UniProt P78417)
Experiment: inhibitors of recombinant GSTO1, primary screen, counter-screen for RBBP9 inhibitor project, biochemical, fluorescence polarization (AID 1974);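 note: 0% = GSTO1-1 with DMSO and 100% = wells lacking GSTO1-1 enzyme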
Conditions: recombinant GSTO1, activity-based probe fluorescence polarization; at 5.96 µM; stronger effect = higher value

Amino acid sequences for entries named in this document (tags omitted).
UniProt P78417, whole entry: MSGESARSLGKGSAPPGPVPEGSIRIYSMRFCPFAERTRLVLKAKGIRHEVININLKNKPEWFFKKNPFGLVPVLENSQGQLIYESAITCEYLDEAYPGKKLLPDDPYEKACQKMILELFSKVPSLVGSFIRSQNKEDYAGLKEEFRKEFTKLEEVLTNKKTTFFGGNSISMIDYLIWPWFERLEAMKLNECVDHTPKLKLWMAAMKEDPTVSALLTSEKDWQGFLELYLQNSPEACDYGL

Q: Which inhibition does the source give for `COc1ccc(C(=O)NCC2(N(C)C)CCCCC2)cc1` here?
A: The inhibition was inactive: -1.14%.

Q: How did the inhibition turn out when `CCN1CCCC(OC(=O)C2(O)c3ccccc3C=Cc3ccccc32)C1` (centres undefined) was run?
A: Its inhibition is inactive: 0.86%.

Q: For `Cc1cc(C(=O)NCC2(N3CCCCC3)CCCCC2)ccc1[N+](=O)[O-]`, which inhibition is on record?
A: Its inhibition is inactive: -1.31%.

Q: How did the inhibition turn out when `O=C(NCC1(N2CCCCC2)CCCCC1)c1cccc(Br)c1` was run?
A: The inhibition was inactive: -0.88%.

Q: `C=CCN1CCN(CCOC(=O)C(O)(c2ccccc2)c2ccccc2)CC1` was tested. Which inhibition did it give?
A: The inhibition was inactive: 4.05%.

Q: For `O=C(NCC1(N2CCCCC2)CCCCC1)c1cc(F)c(F)cc1Cl`, which inhibition is on record?
A: Its inhibition is inactive: 3.46%.

Q: For `Cc1ccccc1C(=O)NCC1(N2CCCCC2)CCCCC1`, which inhibition is on record?
A: The inhibition was inactive: 1.07%.

Q: How did the inhibition turn out when `CN(C)c1ccc(C(=O)NCC2(N(C)C)CCCCC2)cc1` was run?
A: Its inhibition is inactive: 4.38%.

Q: With `CN(C)C1CCCC1OC(=O)C(O)(c1ccccc1)c1ccccc1` (centres undefined) as the compound, how does the inhibition read?
A: The inhibition was inactive: 1.96%.

Q: `Cc1ccc(C(=O)NCC2(N3CCCCC3)CCCCC2)cc1` was tested. Which inhibition did it give?
A: Its inhibition is inactive: 5.19%.

Q: How did the inhibition turn out when `CCN(CC)CC(C)C(C)OC(=O)C(O)(c1ccccc1)c1ccccc1` (centres undefined) was run?
A: The inhibition was inactive: -1.37%.

Q: `COc1cc(SC)ccc1C(=O)NCC1(N(C)C)CCCCC1` was tested. Which inhibition did it give?
A: The inhibition was inactive: -2.56%.

Q: How did the inhibition turn out when `CC(C)N1C(=O)CC2(CCN(CCOC(=O)C(O)(c3ccccc3)c3ccccc3)CC2)C1=O` was run?
A: The inhibition was inactive: 1.22%.

Q: Which inhibition does the source give for `CN1[C@@H]2CC[C@H]1CC(OC(=O)C(O)(c1ccccc1)c1ccccc1)C2` (some centres undefined) here?
A: The inhibition was inactive: -3.96%.

Q: `O=C(NCC1(N2CCCCC2)CCCCC1)c1cc([N+](=O)[O-])ccc1Cl` was tested. Which inhibition did it give?
A: Its inhibition is inactive: 5.25%.

Q: `CC(C)Oc1ccc(C(=O)NCC2(N(C)C)CCCCC2)cc1` was tested. Which inhibition did it give?
A: The inhibition was inactive: 0.04%.

Q: Which inhibition does the source give for `CN(C)c1cccc(C(=O)NCC2(N(C)C)CCCCC2)c1` here?
A: Its inhibition is inactive: -4.2%.

Q: For `COc1ccc(Br)c(C(=O)NCC2(N3CCCCC3)CCCCC2)c1`, which inhibition is on record?
A: Its inhibition is inactive: 10.3%.

Q: `O=C(OC1CN2CCC1CC2)C(CO)(c1ccccc1)c1ccccc1` (centres undefined) was tested. Which inhibition did it give?
A: Its inhibition is inactive: 2.59%.

Q: `O=C(NCC1(N2CCCCC2)CCCCC1)c1cccc(Cl)c1` was tested. Which inhibition did it give?
A: The inhibition was inactive: 6.51%.

Q: Which inhibition does the source give for `COc1cccc(C(=O)NCC2(N3CCCCC3)CCCCC2)c1` here?
A: The inhibition was inactive: -3.08%.

Q: How did the inhibition turn out when `COc1ccc(Cl)cc1C(=O)NCC1(N(C)C)CCCCC1` was run?
A: Its inhibition is inactive: 4.82%.

Q: For `COc1cc(C(=O)NCC2(N(C)C)CCCCC2)c([N+](=O)[O-])cc1OC`, which inhibition is on record?
A: The inhibition was inactive: 2.9%.

Q: With `CN(C)C1(CNC(=O)c2ccc(Br)cc2)CCCCC1` as the compound, how does the inhibition read?
A: Its inhibition is inactive: 2.9%.

Reference: PubChem BioAssay AID1974 (The Scripps Research Institute Molecular Screening Center, 2009)
